# Reference: patent US20030077573A1, “Methods of identifying compounds useful in the inhibition of neurodegenerative disease” (priority 1999, published 2003)
# Only a part of the results on these compounds is given; other tests are left out.
# Legend:
# [1] = tested on: N9 murine microglial cell line; assay: LPS-induced TNF-α release from N9 microglia; format: cell-based; settings: LPS 2.5 ng/mL, 18 h; dipyridamole 10 μM, SNP 10 μM, YC-1 10 μM
# [2] = tested on: murine microglial cell line (N9); assay: LTB4 release from N9 microglial cells; settings: Aβ1-40 500 nM + drug (dipyridamole 10 μM), 18 hours
substance,measurement,setting,value
sodium nitroprusside,effect on LPS-induced microglial activation (TNF-α release),[1],markedly reduce microglial activation induced by LPS
same,effect on Aβ-induced microglial LTB4 release,[2],completely block Aβ-induced microglial LTB4 release
